Laboratory results taken from PMC10139140, “Synthesis of Novel 2-(Cyclopentylamino)thiazol-4(5H)-one Derivatives with Potential Anticancer, Antioxidant, and 11β-HSD Inhibitory Activities” (International Journal of Molecular Sciences, 2023).

Protein sequences, listed by entry. Tags and fused reporters are not part of them. Lines headed by an entry give the natural chain unless they say otherwise; changes in a name come on top.
UniProt P28845: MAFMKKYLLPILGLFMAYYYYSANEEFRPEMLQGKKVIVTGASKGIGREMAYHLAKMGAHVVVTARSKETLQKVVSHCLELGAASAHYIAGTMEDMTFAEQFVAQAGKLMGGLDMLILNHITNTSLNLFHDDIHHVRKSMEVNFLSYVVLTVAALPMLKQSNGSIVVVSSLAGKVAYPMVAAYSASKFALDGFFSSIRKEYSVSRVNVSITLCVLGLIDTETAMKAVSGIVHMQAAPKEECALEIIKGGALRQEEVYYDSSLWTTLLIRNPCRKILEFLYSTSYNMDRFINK

Target: T1, 11β-HSD1 (Homo sapiens, UniProt P28845)
T1 construct: Human liver microsomes were used as a source of 11β-HSD1 enzyme; tissue XenoTech Lot No. 1410013; host or cells: pooled human liver microsomes, mixed gender
Assay: Inhibition of 11β-HSD1 (cortisone to cortisol, human liver microsomes, cortisol ELISA)
Assay type: biochemical
Description: 11β-HSD1 assays: carbenoxolone (disodium salt) (Sigma-Aldrich, Poznań, Poland), cortisone, NADPH tetrasodium salt, phosphate buffer powder (Sigma-Aldrich, Poznań, Poland), pooled human liver microsomes, mixed gender, 1 mL, 20 mg/mL Lot No. 1410013—XenoTech, Cortisol Elisa Ref DkO001 Lot No. 5671A (DiaMetra, Spello, Italy), ELISA Kit for 11-Beta-Hydroxysteroid Dehydrogenase Type 1 Lot No. L211008799 (Cloud-Clone Corp., Wuhan, China), and PBS Lot No. H161008 (Pan Biotech, Aidenbach, Germany).
. Standard 96-well microplates were filled with reagent mixture: cortisone/NADPH (20 μL, to achieve the final concentration of 200 nM/2 μM), microsomes (10 μL, 1.13 μg of 11β-HSD1 in 1 mL) solution in PBS (final amount of 2.5 μg), phosphate buffer (60 μL, pH 7.4), and 10 µL of compounds 3a-3j dissolved in the mixture containing 1% of DMSO and 99% of water. The resulting solution with a final volume of 100 µL was incubated for 2.5 h at 37 °C. To stop the reaction, 10 µL of a 100 µM solution of 18β-glycyrrhetinic acid in PBS was added. The level of cortisol obtained in the reaction was measured by commercially available ELISA kit.
Calibration curves to determine IC50 values for compounds 3a–3i were obtained using their solutions at concentrations of 0.078, 0.156, 0.3125, 0.625, 1.25, 2.5, 5.0, and 10.0 µM and using standard procedure and conditions as described in the previous sections. […]

CC1(C)[C@@H](OC(=O)CCC(=O)O)CC[C@]2(C)[C@H]3C(=O)C=C4[C@@H]5C[C@@](C)(C(=O)O)CC[C@]5(C)CC[C@@]4(C)[C@]3(C)CC[C@@H]12 [carbenoxolone, reference compound]
IC50: 80 ± 6 nM
